## Ab-91 heavy chain CDR variants: yeast mating affinities

From the AlphaSeq antibody data of Engelhart et al. 2022 (doi:10.1038/s41597-022-01779-4), copy in the FLAb collection.

Binding partner: SARS-CoV-2 spike HR2 peptide, sequence PDVDLGDISGINAS.

Parent: Ab-91, a human scFv built as VL, three GGGGS repeats, VH. Only the CDRs of the heavy chain vary.
VL: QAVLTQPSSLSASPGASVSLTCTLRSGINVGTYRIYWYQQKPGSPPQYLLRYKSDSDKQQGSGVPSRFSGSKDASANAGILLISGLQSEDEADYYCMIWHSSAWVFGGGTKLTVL
VH: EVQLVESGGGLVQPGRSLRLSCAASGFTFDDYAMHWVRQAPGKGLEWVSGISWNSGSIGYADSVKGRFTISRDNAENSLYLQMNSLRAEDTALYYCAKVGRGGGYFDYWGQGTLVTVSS

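The starting antibody came from a phage panning campaign against this peptide. In library AAYL51, one, two or three CDR residues were substituted; doubles and triples were drawn at random. The scFvs were displayed on barcoded MATa yeast, the peptide on MATalpha yeast. Mating (16 h, 30 °C) was followed by selection of diploids and sequencing of their barcodes. A regression on co-assayed BCL2-family reference pairs converts the normalised counts of each replicate to an apparent Kd. The assay was run in three technical replicates.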

The parent's heavy chain CDRs are GFTFDDYAMH, GISWNSGSIGYADSVK, VGRGGGYFDY; each variant's own CDRs replace them letter for letter. This list gathers variants with a substitution at I51 (VH, numbered from residue 1). The read-out is the apparent dissociation constant on a log10 scale (nM): the lower, the stronger. An entry "ND" has no value in the source: the pair was not observed among the diploids in that replicate. This suggests poor binding but is not conclusive. For reference, the parent read 1.86 as the reference entry and 0.88 as a member of this library. Empty control strains, which show no peptide, gave a signal in 21% of pairings with library AAYL51; the median was 4.54 and 95% of these signals were weaker than 3.26. No background was subtracted.

For GFTNDIYAMH, GWSWNSGSIGYADSVK, VGRGGGYFDY, the assay gave ND, ND, 3.00.
For GFTFDDYAMH, GHSWNSWSIGHADSVK, VGRGGGYFDY, the assay gave ND, ND, ND.
For GFTFDKYAMH, GLSWNSGSIGYADSVK, RGRGGGYFDY, the assay gave 1.11, 1.07, 0.73.
For GFTFTDYAMH, GESWNSGSIGYADSVK, VGRDGGYFDY, the assay gave 4.33, ND, ND.
For GFQFDDYAMH, GWSWNSGSIGYADSVK, VGRGGGHFDY, the assay gave ND, ND, ND.
For GFTFDDYAMH, GYDWNSGSIGYADHVK, VGRGGGYFDY, the assay gave ND, ND, ND.
For GFTFDWYAMH, GLSWNSGSIGYADSVK, VGRGGGYGDY, the assay gave 2.70, 2.32, 2.60.
For GFKFDDYAMH, GLSWNSGSIGYADSVK, VGRRGGYFDY, the assay gave ND, ND, ND.
For GFTFDDYAMH, GHSWNSGSIGYADSVK, VGRGGGYFDY, the assay gave 4.64, 4.44, ND.
For GFTFDLYAMH, GKSWNSGSIGYADSVN, VGRGGGYFDY, the assay gave ND, ND, ND.
For GFTFDDIAMH, GLSWNSGSIGYADSVK, VGRGGGYFDY, the assay gave ND, ND, ND.
For GFTFDDYAYH, GMSWNSGGIGYADSVK, VGRGGGYFDY, the assay gave 5.32, 4.75, ND.
For GFTFDDYAMH, GNSWNSGSIGYADSVK, VCQGGGYFDY, the assay gave ND, ND, ND.
For GFTFDDYAMH, GTSWNSGSIGYADSVK, VGRRGGYFDD, the assay gave ND, ND, ND.
For GFTFDDYAMH, GESWNSGSIGYADSVK, VGRPRGYFDY, the assay gave 4.97, ND, ND.
For GFTFDDYAMH, TPQWNSGSIGYADSVK, VGRGGGYFDY, the assay gave ND, ND, ND.
For GFTFDDYPMH, GVSWNSGSIGYADSVK, VGRGGGYFRY, the assay gave 5.15, 5.14, ND.
For GFTFDDYAML, GLSWNSGSFGYADSVK, VGRGGGYFDY, the assay gave ND, ND, ND.
For GFTFDDYAMH, GKSWNFGSIGYADSVK, VGRGGHYFDY, the assay gave 4.30, ND, ND.
For GFTFDDYAMH, GHSWNSTQIGYADSVK, VGRGGGYFDY, the assay gave ND, ND, ND.
For GFTFDDYAMH, GGSWNSLSIGYADSVK, SGRGGGYFDY, the assay gave 4.12, ND, 5.09.
For GFHFDDYAMG, GMSWNSGSIGYADSVK, VGRGGGYFDY, the assay gave ND, ND, ND.
For GFTFFDYAMH, GFSWNSGSINYADSVK, VGRGGGYFDY, the assay gave 4.42, 4.38, 4.69.
For GFTFDGYAMY, GWSWNSGSIGYADSVK, VGRGGGYFDY, the assay gave ND, ND, ND.
For GHTFDDYAMH, GPSWNSGSIGYADSVK, VGRGGGYFDD, the assay gave ND, ND, ND.
For GFTFDDYAMH, GHSWNSGSIGYNDSTK, VGRGGGYFDY, the assay gave ND, ND, ND.
For GFTFDDYAMH, GNSWNSGSIGYADSVK, VGKGGGYFDR, the assay gave ND, ND, ND.
For GFTFDDYAMH, GLSWNSGSIGYADSVT, VGRGCGYFDY, the assay gave ND, ND, ND.
For GFTFDDYAMH, GDSWNSGSIGYADSVK, VGRGGGYDWY, the assay gave ND, 4.71, ND.
For GFTFDDYALH, GKSWNSGSIGYADSVK, VGRWGGYFDY, the assay gave ND, ND, 3.76.
For GFTFDDYAMH, FASWNSGSIGYADSVK, VCRGGGYFDY, the assay gave ND, 5.63, ND.
For GFTFDDYAMH, LNSWNSGSIGYADSVK, VGRGGGYPDY, the assay gave 5.13, ND, ND.
For GFTFRDYAMH, GKWWNSGSIGYADSVK, VGRGGGYFDY, the assay gave 5.36, ND, ND.
For GFEFDDYAMH, GKSWNSSSIGYADSVK, VGRGGGYFDY, the assay gave ND, ND, ND.
For GFTFDDYAMH, GCSWNSGSIGYADSVK, VGMGGGYFDY, the assay gave 4.21, 4.51, ND.
For GFTFDDYAMI, GASWNSGSIGYADSVK, VGRGGGYWDY, the assay gave ND, ND, ND.
For WFTFDDYAMH, GLSWNSGSIGYADSVY, VGRGGGYFDY, the assay gave 4.17, 4.93, ND.
For RFTFDDYAMH, GTSWNSISIGYADSVK, VGRGGGYFDY, the assay gave ND, ND, ND.
For GFTFDDYAMH, GRSWNSYSIGYADSVK, VGKGGGYFDY, the assay gave 4.47, 5.69, ND.